Results from PubChem BioAssay (Tox21).
Values joined by “and” are separate entries in the source; they are usually repeats but may differ in a detail not shown here. Equal values may be shown once. The list shows a part of the results, in another mix than the full data. Records with an inconclusive call do not appear. A structure can be active in one record and inactive in another. Active and inactive are the calls of the source. Unless noted, the call rests on the fitted dose curve; in most records, active means well fitted curve in the direction sought with a large enough effect in the repeat runs; inconclusive means weak or mixed curves; inactive means no such curve, though single readings can be large; an effect the other way counts as inactive or inconclusive.

Amino acid sequences for entries named in this document (tags omitted).
UniProt P16473, whole entry: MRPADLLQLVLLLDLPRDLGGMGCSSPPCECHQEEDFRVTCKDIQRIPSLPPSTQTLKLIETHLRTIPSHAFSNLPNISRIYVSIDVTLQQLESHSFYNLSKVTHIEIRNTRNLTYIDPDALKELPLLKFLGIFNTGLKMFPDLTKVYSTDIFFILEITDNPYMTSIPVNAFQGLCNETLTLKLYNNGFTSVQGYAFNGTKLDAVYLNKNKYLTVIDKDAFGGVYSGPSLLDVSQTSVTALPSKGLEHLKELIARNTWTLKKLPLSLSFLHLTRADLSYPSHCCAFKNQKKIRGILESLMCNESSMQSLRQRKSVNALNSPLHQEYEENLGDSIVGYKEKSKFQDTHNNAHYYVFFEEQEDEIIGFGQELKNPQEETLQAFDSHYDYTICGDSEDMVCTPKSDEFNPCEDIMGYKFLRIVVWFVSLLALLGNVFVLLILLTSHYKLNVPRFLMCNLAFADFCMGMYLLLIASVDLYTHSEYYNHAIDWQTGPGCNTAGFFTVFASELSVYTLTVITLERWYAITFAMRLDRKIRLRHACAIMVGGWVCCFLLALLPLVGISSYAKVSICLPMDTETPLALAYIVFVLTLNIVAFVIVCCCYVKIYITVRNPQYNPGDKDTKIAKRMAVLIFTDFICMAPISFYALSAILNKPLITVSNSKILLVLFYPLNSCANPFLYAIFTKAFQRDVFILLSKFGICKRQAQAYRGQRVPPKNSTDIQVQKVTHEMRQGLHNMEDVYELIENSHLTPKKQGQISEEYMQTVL
UniProt Q14994, whole entry: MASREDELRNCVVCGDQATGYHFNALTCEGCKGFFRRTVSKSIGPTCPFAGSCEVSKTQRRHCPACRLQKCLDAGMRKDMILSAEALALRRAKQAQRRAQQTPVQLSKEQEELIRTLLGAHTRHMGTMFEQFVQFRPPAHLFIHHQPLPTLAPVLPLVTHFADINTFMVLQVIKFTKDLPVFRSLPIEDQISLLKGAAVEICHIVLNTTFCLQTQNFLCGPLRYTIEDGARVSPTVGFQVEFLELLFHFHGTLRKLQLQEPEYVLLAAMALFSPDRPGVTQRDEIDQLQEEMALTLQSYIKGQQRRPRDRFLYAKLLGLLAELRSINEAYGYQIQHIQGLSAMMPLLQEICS

Assays:
[1] = qHTS assay to identify small molecule antagonists of the estrogen related receptor signaling pathway with the pleiotropic PPARgamma coactivator (PGC) from Tox21 10K library - cell viability counter screen (AID 1224840; active means well fitted cell-killing curve with a large enough effect in the repeat runs, not every such curve was filed as active; further: nearly all actives have a fitted effect of over 40% in size); settings: PGC/ERR reporter cells viability, CellTiter-Fluor, 17.5 h; at 92.4 µM (top of the series)
Method in brief: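 Fluorescence read-out of CellTiter-Fluor viability reagent, added after cells had been exposed to compound in DMSO for 17.5 h at 37 C; 30 min development at 37 C/5% CO2. Cells: PGC/ERR line, 2,000/well.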

[2] = qHTS assay to identify small molecule antagonists of the estrogen related receptor signaling pathway with the pleiotropic PPARgamma coactivator (PGC) from Tox21 10K library (AID 1224841; call rule not given here; further: actives are mostly falling curves and most rising ones were filed inactive; nearly all actives have a fitted effect of over 50% in size; further: potency means the concentration at half of the fitted maximal effect); settings: PGC/ERR reporter cell line, ONE-Glo luciferase, 18 h; series mostly up to 92.4 µM
[3] = biological target: Thyrotropin receptor (Homo sapiens) (UniProt P16473); experiment: qHTS assay to identify small molecule agonists of the thyroid stimulating hormone receptor (TSHR) signaling pathway (AID 1224843; calls by dose curve; further: nearly all actives have a fitted effect of over 45% in size); settings: TSHR-HEK293 cells, cAMP HTRF, agonist mode, 30 min; at 92.4 µM (top of the series)
[4] = qHTS assay to identify small molecule agonists of the hypoxia (HIF-1) signaling pathway - cell viability counter screen (AID 1224844; calls by dose curve; further: nearly all actives have a fitted effect of over 50% in size); settings: HRE-bla ME-180 viability, CellTiter-Glo luminescence, 17 h; at 76.8 µM (top of the series) unless noted
Method in brief: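 CellTiter-Glo luminescence read-out, 30 min RT, taken in the same wells as the beta-lactamase HRE reporter assay; HRE-bla ME-180 cells, 0.5% dialyzed FBS, 17 hr compound treatment at 37C, 5% CO2.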

[5] = qHTS assay to identify small molecule agonists of H2AX (AID 1224845; active means well fitted activation curve with a large enough effect in the signal ratio in the repeat runs, not every such curve was filed as active; the % refers to the signal ratio); settings: CHO-K1 phospho-H2AX Ser139 HTRF, 3 h; at 154 µM (top of the series)
Method in brief: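 Wild-type CHO-K1 cells, plated overnight, exposed 3hr at 37C to 15 concentrations (0.76% DMSO final). Lysed, then HTRF anti-pH2AX (S139) cryptate and anti-H2AX-d2 antibodies, 24 hr room temperature; 665/620 nm emission read.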

[6] = qHTS assay to identify small molecule agonists of the hypoxia (HIF-1) signaling pathway (AID 1224846; active means well fitted activation curve with a large enough effect in the signal ratio in the repeat runs, not every such curve was filed as active; the % refers to the signal ratio); settings: HRE-bla ME-180 cells, beta-lactamase ratio, 17 h; at 76.8 µM (top of the series)
Method in brief: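 Beta-lactamase FRET read-out (CCF4-AM substrate) from ME-180 cells carrying an HRE-driven bla reporter, after 17 hrs compound exposure at 37C/5% CO2. Cells were seeded at 2,000 per well in 0.5% dialyzed FBS medium and preincubated 5 hrs.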

[7] = qHTS assay to identify small molecule antagonists of the estrogen related receptor (ERR) signaling pathway from Tox21 library (AID 1224848); settings: ERR reporter cell line, luciferase antagonist mode, 18 h; series mostly up to 92.4 µM; further: nearly all actives have a fitted effect of over 50% in size
Method in brief: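 Compounds dissolved in DMSO are pin-transferred onto ERR reporter cells (2,000 per well) that have settled for 6 h at 37 C. Plates then incubate 18 h at 37 C before ONE-Glo luciferase reagent and a luminescence read 30 min later.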

[8] = qHTS assay to identify small molecule agonists of the estrogen related receptor (ERR) signaling pathway from Tox21 library (AID 1224849; calls by dose curve; further: nearly all actives have a fitted effect of over 15% in size); settings: ERR reporter cell line, ONE-Glo luciferase, 18 h; at 92.4 µM (top of the series)
Method in brief: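 Luminescence readout (ONE-Glo, 30 min RT) after 18 h compound exposure at 37 C of NTP-supplied ERR reporter cells; cells were plated 6 h before compound addition by pin tool.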

[9] = qHTS RealTime-Glo MT Cell Viability Assay in HEK293 cells - 32 hour (AID 1224868); settings: RealTime-Glo luminescence, at 76.8 µM (top of the series); further: top concentration of the series differs between compounds; nearly all actives have a fitted effect of over 50% in size
Method in brief: (§1)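 Homogeneous bioluminescent viability format in HEK293 cells (600 cells/well). Following 5 h at 37 C/5% CO2, 23 nL compound was pintooled; the signal was measured repeatedly during 40 h incubation.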

[10] = A CellTox Green Cytotoxicity Assay to monitor cytotoxicity in HEK293 cells - 0 hour (AID 1224869); settings: CellTox Green fluorescence; series mostly up to 76.8 µM; further: nearly all actives have a fitted effect of over 50% in size; further: potency means the concentration at half of the fitted maximal effect
Method in brief: (§2)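 Read-out: fluorescence of a cell-impermeant cyanine dye staining DNA of dead cells, proportional to cytotoxicity. HEK293, 600 cells/well with reagent, compound (23 nL DMSO) added after 5 h; reads at 0, 8, 16, 24, 32, 40 h.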

[11] = qHTS RealTime-Glo MT Cell Viability Assay in HepG2 cells - 40 hour (AID 1224870); settings: RealTime-Glo luminescence; at 76.8 µM (top of the series) unless noted; further: nearly all actives have a fitted effect of over 50% in size
Method in brief: (§3)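 HepG2 cells (600/well) mixed with RealTime-Glo MT reagent, settled 5 h at 37 C/5% CO2 before compound addition. Nonlytic NanoLuc luminescence from viable-cell prosubstrate reduction read repeatedly during 40 h treatment at 37 C.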

[12] = qHTS RealTime-Glo MT Cell Viability Assay in HEK293 cells - 16 hour (AID 1224872); settings: RealTime-Glo luminescence; at 76.8 µM (top of the series) unless noted
Method in brief: as §1

[13] = qHTS RealTime-Glo MT Cell Viability Assay in HepG2 cells - 8 hour (AID 1224873); settings: RealTime-Glo luminescence; at 76.8 µM (top of the series) unless noted; further: nearly all actives have a fitted effect of over 55% in size
Method in brief: as §3

[14] = A CellTox Green Cytotoxicity Assay to monitor cytotoxicity in HepG2 cells - 16 hour (AID 1224876); settings: CellTox Green fluorescence; series mostly up to 76.8 µM; further: nearly all actives have a fitted effect of over 45% in size; further: potency means the concentration at half of the fitted maximal effect
Method in brief: (§4)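 HepG2, 600 cells/well premixed w/ CellTox Green; 5 h settle, 37 C/5% CO2; pintool cpd add (DMSO); 37 C, 40 h; fluorescence read at 0, 8, 16, 24, 32, 40 h.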

[15] = qHTS RealTime-Glo MT Cell Viability Assay in HepG2 cells - 32 hour (AID 1224877); settings: RealTime-Glo luminescence, at 76.8 µM (top of the series); further: nearly all actives have a fitted effect of over 55% in size
Method in brief: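 Cell number in HepG2 cultures estimated from NanoLuc luminescence generated by metabolic reduction of a prosubstrate by living cells. The homogeneous, nonlytic format allowed repeated reads at 0, 8, 16, 24, 32 and 40 h of compound exposure.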

[16] = A CellTox Green Cytotoxicity Assay to monitor cytotoxicity in HepG2 cells - 24 hour (AID 1224878); settings: CellTox Green fluorescence; series mostly up to 76.8 µM; further: nearly all actives have a fitted effect of over 45% in size; further: potency means the concentration at half of the fitted maximal effect
Method in brief: as §4

[17] = A CellTox Green Cytotoxicity Assay to monitor cytotoxicity in HepG2 cells - 40 hour (AID 1224879); settings: CellTox Green fluorescence; series mostly up to 76.8 µM; further: nearly all actives have a fitted effect of over 40% in size
Method in brief: as §4

[18] = qHTS RealTime-Glo MT Cell Viability Assay in HEK293 cells - 0 hour (AID 1224880); settings: RealTime-Glo luminescence; at 76.8 µM (top of the series) unless noted; further: top concentration of the series differs between compounds; nearly all actives have a fitted effect of over 45% in size
Method in brief: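 Luminescence readout at each listed time point; HEK293, 600 cells/well, RealTime-Glo MT reagent added with cells; compounds pinned (23 nL in DMSO) after 5 h at 37 C; continuous culture at 37 C.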

[19] = A CellTox Green Cytotoxicity Assay to monitor cytotoxicity in HEK293 cells - 32 hour (AID 1224881); settings: CellTox Green fluorescence; series mostly up to 76.8 µM; further: nearly all actives have a fitted effect of over 40% in size
Method in brief: as §2

[20] = biological target: Nuclear receptor subfamily 1 group I member 3 (Homo sapiens) (UniProt Q14994); experiment: qHTS assay to identify small molecule agonists of the constitutive androstane receptor (CAR) signaling pathway (AID 1224839); settings: HepG2 hCAR CYP2B6-luciferase, agonist mode, 24 h; series mostly up to 92.4 µM;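 further: HepG2 cells stably carrying human CAR and a CYP2B6 luciferase reporter; nearly all actives have a fitted effect of over 15% in size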
On the % scale 0 is the no-effect control and ±100 the full control effect.

CC(C)N(CCO)C(C)C
inactive: viability change, negative = cytotoxic [1] -0.238% | Potency [2] | activation [3] 0.786% | activity change, negative = cytotoxicity [4] -33.4% | activation (H2AX phosphorylation) [5] -1.87% | activation [6] -0.735% | Potency [7] | activity change, positive = activation [8] -4.37% | activity change, negative = cytotoxic [9] 1.15% | Potency [10] | activity change, negative = cytotoxic [11] -5.82% | activity change, negative = cytotoxicity [12] -2.59% | viability change, negative = cytotoxic [13] -19.6% | Potency [14] | activity change, negative = cytotoxic [15] -5.16% | Potency [16] | Potency [17] | activity change, negative = cytotoxicity [18] -2.83% | Potency [19]

COP(C)(=O)OC
inactive: viability change, negative = cytotoxic [1] 7.32% and -5.07% | Potency [2] | activation [3] -2.7% and 2.68% | activity change, negative = cytotoxicity [4] 6.31% | activation (H2AX phosphorylation) [5] -1.28% and 0.66% | activation [6] 0.521% and -2.16% | Potency [7] | activity change, positive = activation [8] -2.54% and 18.4% | activity change, negative = cytotoxic [9] 1.14% and 2.99% | Potency [10] | activity change, negative = cytotoxic [11] 0.229% and 2.98% | activity change, negative = cytotoxicity [12] 4.73% and 3.15% | viability change, negative = cytotoxic [13] -0.324% and -3.66% | Potency [14] | activity change, negative = cytotoxic [15] 0.711% and 0.224% | Potency [16] | Potency [17] | activity change, negative = cytotoxicity [18] -4.25% and -1.73% | Potency [19]

CCOP(=O)(CC)OCC
inactive: viability change, negative = cytotoxic [1] 0.48% | Potency [2] | activation [3] 11.2% | activity change, negative = cytotoxicity [4] 2.13% | activation (H2AX phosphorylation) [5] -2.4% | activation [6] -0.549% | Potency [7] | activity change, positive = activation [8] 5.03% | activity change, negative = cytotoxic [9] 7.13% | Potency [10] | activity change, negative = cytotoxic [11] 0.494% | activity change, negative = cytotoxicity [12] 4.35% | viability change, negative = cytotoxic [13] 0.577% | Potency [14] | activity change, negative = cytotoxic [15] 0.315% | Potency [16] | Potency [17] | activity change, negative = cytotoxicity [18] 3.54% | Potency [19]

Cc1ccc([N+](=O)[O-])c([N+](=O)[O-])c1
inactive and 27.5 µM (active): Potency [10]
inactive and 19.5 µM (active): Potency [14] | Potency [16]
inactive: activation (H2AX phosphorylation) [5] 2.28% | Potency [7] | activity change, positive = activation [8] -57.8% and -14.5% | activity change, negative = cytotoxic [11] 0.11% and 1.6% | viability change, negative = cytotoxic [13] -6.21% and -15% | activity change, negative = cytotoxic [15] -0.375% and -0.711% | activity change, negative = cytotoxicity [18] -2.9% and -2.26%
70 µM (active) and inactive: Potency [2]

Nc1cc([N+](=O)[O-])cc([N+](=O)[O-])c1O
inactive: Potency [20] | activation [3] 3.86% | activity change, negative = cytotoxicity [4] 21.6% | activation [6] -0.248% | activity change, positive = activation [8] -26.3% | Potency [10] | activity change, negative = cytotoxic [11] -7.31% | activity change, negative = cytotoxicity [12] -0.332% | viability change, negative = cytotoxic [13] -8.14% | Potency [14] | activity change, negative = cytotoxic [15] -10.3% | Potency [16] | Potency [17] | activity change, negative = cytotoxicity [18] 2.68% | Potency [19]
